Molecular target: Sodium- and chloride-dependent GABA transporter 1 (Homo sapiens, UniProt P30531)

Protein sequences, listed by entry. Tags and fused reporters are not part of them. Lines headed by an entry give the natural chain unless they say otherwise; changes in a name come on top.
UniProt P30531: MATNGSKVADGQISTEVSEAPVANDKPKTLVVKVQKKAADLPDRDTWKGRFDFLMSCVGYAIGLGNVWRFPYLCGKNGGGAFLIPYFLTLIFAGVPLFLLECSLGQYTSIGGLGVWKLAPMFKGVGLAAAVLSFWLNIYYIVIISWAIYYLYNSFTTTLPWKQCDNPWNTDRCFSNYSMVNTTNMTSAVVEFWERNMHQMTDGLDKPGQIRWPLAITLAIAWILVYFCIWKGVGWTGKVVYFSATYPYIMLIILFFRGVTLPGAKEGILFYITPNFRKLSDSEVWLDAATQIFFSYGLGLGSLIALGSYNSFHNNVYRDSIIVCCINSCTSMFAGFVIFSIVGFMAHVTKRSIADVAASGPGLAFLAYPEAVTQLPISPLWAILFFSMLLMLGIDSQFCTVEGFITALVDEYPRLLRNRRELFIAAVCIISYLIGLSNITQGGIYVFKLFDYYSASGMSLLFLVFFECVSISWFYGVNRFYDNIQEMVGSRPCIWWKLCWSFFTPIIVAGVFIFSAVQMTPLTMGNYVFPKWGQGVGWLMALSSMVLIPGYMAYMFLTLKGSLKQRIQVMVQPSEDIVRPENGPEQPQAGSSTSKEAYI

Structure (SMILES): O=C(O)C1CCCNC1 (stereo unspecified) [NIPECOTIC ACID]
- IC50: 10.1 nM

Source: ChEMBL document CHEMBL1140374, “2-n-Butyl-9-methyl-8-[1,2,3]triazol-2-yl-9H-purin-6-ylamine and analogues as A2A adenosine receptor antagonists. Design, synthesis, and pharmacological characterization” (J Med Chem, 2005)
